Laboratory results reported in publication PMC12751012, “Nanoscale Direct-to-Biology Optimization and Structural Insights into Selective S. aureus TrmD Inhibitors” (Journal of Medicinal Chemistry, 2025).
Entries after “also recorded” stand apart in the source; their conditions may differ.

Experiments:
E. coli ATCC10536 = assay: Bacterial growth inhibition assay, E. coli ATCC10536; format: cell-based, Escherichia coli; conditions: up to 100 μM, growth curves
Protocol: (§1) Compounds were dissolved in DMSO to a final concentration of 20 mM. To determine the compound’s activity against different bacteria, a bacterial culture (E. coli ATCC10536, S. aureus RN4220) was set up to an optical density at 600 nm (OD600) of 0.05 from an overnight culture in Mueller-Hinton broth (Carl Roth). The compound was added in different concentrations ranging from […] to 1 μM. DMSO concentration was constantly adjusted to be 1% in the final culture. Cultures of 200 μL were incubated for 24 h at 37 °C in flat-bottom 96-well polystyrene culture plates (Greiner) using a BioTek Synergy H1 plate reader. Plates were incubated under constant shaking, and absorbance at 600 nm was measured every 20 min. The experiment was performed in three biological replicates with three technical replicates each.

[1] = Cell Titer Glo cell viability assay; format: cell-based; conditions: human
Protocol: Cell viability assays were conducted with HEK293 cells (ATCC) to investigate the compounds’ mammalian cytotoxicity. Cells were cultured according to standard protocols (DMEM, 10% FBS, 1× Penicillin/Streptomycin, 37 °C, 5% CO2). Cell viability was assessed using the Promega CellTiterGlo assay kit. Briefly, 1000 cells were seeded in white half a rea 96-well plates (Greiner) and incubated for 48 h with inhibitors from DMSO stocks (final: 0.1% DMSO) under standard cultivation conditions. Then, the cell titer reagent was added to each well according to the manufacturer’s protocols, and luminescence was measured using a Tecan Spark 10 M plate reader.

S. aureus RN4220 = assay: Bacterial growth inhibition assay, S. aureus RN4220; format: cell-based, Staphylococcus aureus
Protocol: as §1

For `NC(N)=NCCn1cc(-c2c[nH]c3nc[nH]c(=O)c23)nn1` [Compound 8h], which “effect on E. coli growth” value (E. coli ATCC10536) is on record?
The value was “no pronounced effect on growth”.

What about the CC50 at 48 h [1] of the same compound?
The CC50 at 48 h was > 100 µM.

And the “effect on S. aureus RN4220 growth” value (S. aureus RN4220; 1, 10 and 100 μM, 24 h growth curves)?
Its value is “no pronounced effect on growth; also recorded: did not influence bacterial growth”.

And the MIC (S. aureus RN4220; Staphylococcus aureus, RN4220, 24 h (1440 min))?
Its MIC is > 100 µM.
